Assay results as given in patent US7998937B2, “Flavonoid compound having an antiviral activity” (Korea Research Institute of Bioscience and Biotechnology, priority 2005, dated 2011).

Tested on: Vero cells
Test: Cytotoxicity (CC50) in Vero cells
Settings: 0.1-100 μg/mL, 48 hours

catechin
CC50 (concentration required for 50% cytotoxicity): > 100 µg/mL
